{"source": "patent US6642040B2", "about": "“Human cGMP-stimulated cyclic nucleotide phosphodiesterase” (The Board of Regents of the University of Washington, priority 1991, dated 2003)", "test_system": "cAMP hydrolysis", "experiment": "CaM-PDE activity of extracts of COS-7 cells transfected with 59 kDa CaM-PDE cDNA", "format": "biochemical, bovine", "conditions": "COS-7 cell extracts, 2 μM cAMP", "experimental": "COS cells were scraped from the plates and homogenized in a buffer containing 40 mM Tris-HCl (pH=7.5), 5 mM EDTA, 15 mM benzamidine, 15 mM beta-mercaptoethanol, 1 μg per ml pepstatin A and 1 μg per ml peupeptin using a Dounce homogenizer (1 ml per 100 mm plate). Homogenates were assayed for PDE activity according to the procedures of Hanson et al., Proc. Nat'l. Acad. Sci. U.S.A., 79:2788-2792 (1982), using [^3H]cGMP as the substrate. Reactions were carried out at 300 for 10 minutes in a buffer containing 20 mM Tris-HCl (pH=7.5), 20 mM imidazole (pH=7.5), 3 mM MgCl2, 15 mM Mg acetate, 0.2 mg per ml BSA and 1 μM ^3H-cAMP with either 2 mM EGTA or 0.2 mM CaCl2 and 4 μg per ml CaM. Assays were stopped by incubating the tubes in a 900 water bath for 1 minute. After cooling, 10 μl of 2.5 mg per ml snake venom was added to each assay and incubated at 370 for 5 minutes. The samples were diluted with 250 μl of 20 mM Tris-HCl (pH=7.5) and immediately applied to 0.7 ml A-25 ion exchange columns. The columns were washed three times with 0.5 ml of 20 mM Tris-HCl (pH=7.5) and the eluate was collected in scintillation vials. Samples were counted for 1 minute using a Packard Model 1600TR scintillation counter. Specific cyclic nucleotide hydrolytic activity was expressed as picomoles cAMP or cGMP hydrolyzed per minute per mg protein. […]", "data": [{"molecule": "p5′9KCAMPDE-2: expression product of cDNA encoding bovine lung 59 kDa CaM-PDE (SEQ ID NO: 17) (protein) MDDHVTIRRKHLQRPIFRLRCLVKQLEKGDVNVIDLKKNIEYAASVLEAVYIDETRRLLDTDDELSDIQSDSVPSEVRDWLASTFTRKMGMMKKKSEEKPRFRSIVHVVQAGIFVERMYRKSYHMVGLAYPEAVIVTLKDVDKWSFDVFALNEASGEHSLKFMIYELFTRYDLINRFKIPVSCLIAFAEALEVGYSKYKNPYHNLIHAADVTQTVHYIMLHTGIMHWLTELEILAMVFAAAIHDYEHTGTTNNFHIQTRSDVAILYNDRSVLENHHVSAAYRLMQEEEMNVLINLSKDDWRDLRNLVIEMVLSTDMSGHFQQIKNIRNSLQQPEGLDKAKTMSLILHAADISHPAKSWKLHHRWTMALMEEFFLQGDKEAELGLPFSPLCDRKSTMVAQSQIGFIDFIVEPTFSLLTDSTEKIIIPLIEEDSKTKTPSYGASRRSNMKGTTNDGTYSPDYSLASVDLKSFKNSLVDIIQQNKERWKELAAQGEPDPHKNSDLVNAEEKHAETHS", "values": [{"measurement": "stimulation of cAMP hydrolytic activity in the presence of calcium and calmodulin", "result": "4-5 fold"}]}]}
